In article PMC10853778 (Nucleic Acids Research, 2022):

Target: T1, full-length human RPA trimeric complex (RPA70, RPA32, RPA14), recombinant (human, UniProt P27694 1-616; P15927 1-270; P35244 1-121)
T1 construct: RPA70 (RPA1) subunit, human; RPA32 (RPA2) subunit, human; RPA14 (RPA3) subunit, human; also called trimeric RPA; source: E. coli BL21(DE3), p11d-tRPA plasmid, purified (Affi-gel blue, hydroxyapatite, Q column); copies: + +
Experiment: NMR titration; 15N-labelled HHD1+2 titrated with unlabelled RPA trimer; 1H-15N 2D TROSY-HSQC, 25°C; RPA dialysed in 20 mM Tris-HCl pH 7.4, 100 mM NaCl, 2 mM DTT
Conditions: both partners purified

- binding result: binds
B1: RTEL1 tandem harmonin homology domains HHD1+2 (residues 886-1140) (domain or fragment, human, UniProt Q9NZ71-6 886-1140, looked up)
chain: EPVAGAQTDRAKLFMVAVKQELSQANFATFTQALQDYKGSDDFAALAACLGPLFAEDPKKHNLLQGFYQFVRPHHKQQFEEVCIQLTGRGCGYRPEHSIPRRQRAQPVLDPTGRTAPDPKLTVSTAAAQQLDPQEHLNQGRPHLSPRPPPTGDPGSQPQWGSGVPRAGKQGQHAVSAYLADARRALGSAGCSQLLAALTAYKQDDDLDKVLAVLAALTTAKPEDFPLLHRFSMFVRPHHKQRFSQTCTDLTGRPY
notes: RTEL1, human, residues 886-1140 (HHD1, linker, HHD2) of Uniprot Q9NZ71-6; pET-28a(+), NdeI/XhoI; uniformly 15N-labelled where it was the observed partner; also called HHD1-linker-HHD2; source: E. coli Rosetta (DE3), purified (Ni-NTA, heparin, SEC); not shown: His6, N-terminal, kept
